Results from patent US11370781B2, “Combination therapy for treating cancer” (Epizyme, Inc., priority 2012, dated 2022).
Read-outs that look alike come from different tables or passages of the source.

System: SUDHL10 human lymphoma cells
Protocol: The animals were fed ad libitum water (reverse osmosis 1 ppm Cl) and NIH 31 Modified and Irradiated Lab Diet® consisting of 18.0% crude protein, 5.0% crude fat, and 5.0% crude fiber. The mice were housed on irradiated Enrich-o'cobs™ bedding in static microisolators on a 12-hour light cycle at 20-22° C. (68-72° F.) and 40-60% humidity. All procedures comply with the recommendations of the Guide for Care and Use of Laboratory Animals with respect to restraint, husbandry, surgical procedures, feed and fluid regulation, and veterinary care.
Human lymphoma cell lines were harvested during mid-log phase growth, and resuspended in PBS with 50% Matrigel™ (BD Biosciences). Each mouse received 1×10^7 cells (0.2 mL cell suspension) subcutaneously in the right flank. Tumors were calipered in two dimensions to monitor growth as the mean volume approached the desired 80-120 mm^3 range. Tumor size, in mm^3, was calculated from: […]
Compounds of Formula (IIa) were stored at room temperature and protected from light. On each treatment day, a fresh compound formulations were prepared by suspending the powders in 0.5% sodium carboxymethylcellulose (NaCMC) and 0.1% Tween® 80 in deionized water. […] Formulations were stored away from light at 4° C. prior to administration.
Several chemotherapeutica were used in parallel to Epizyme compounds. Cyclophosphamide (Baxter, Lot #016591), was reconstituted to 20 mg/mL with sterile saline and stored at 4° C. A fresh dosing solution was prepared for each dose by dilution with saline. Doxorubicin (Doxorubicin Meiji®, Meiji Pharmaceutical Co. Ltd., 1 mg/mL) was stored at 4° C. and diluted with saline on each treatment day. Vincristine (Hospira, Inc., 1 mg/mL) was diluted with saline on each treatment day. Prednisone (Boehringer Ingelheim GmbH, 1 mg/mL) was diluted with PBS at the beginning of each 5-day dosing cycle.
Mice were treated at compound doses ranging from 75-600 mg/kg and at TID (3 times a day every 8 h), BID (twice a day every 12 h) or QD (once a day) schedules for various amount of days by oral gavage or injections via the intravenous, intraperitoneal or subcutaneous routes. Each dose was delivered in a volume of 0.2 mL/20 g mouse (10 mL/kg), and adjusted for the last recorded weight of individual animals. The maximal treatment length was 28 days.
Treatment efficacy was determined on the last treatment day. MTV(n), the median tumor volume for the number of animals, n, evaluable on the last day, was determined for each group. Percent tumor growth inhibition (% TGI) can be defined several ways. First, the difference between the MTV(n) of the designated control group and the MTV(n) of the drug-treated group is expressed as a percentage of the MTV(n) of the control group: […]
Another way of calculating % TGI is taking the change of the tumor size from day 1 to day n into account with n being the last treatment day.

CCN(c1cc(-c2ccc(CN3CCOCC3)cc2)cc(C(=O)NCc2c(C)cc(C)[nH]c2=O)c1C)C1CCOCC1 [Compound 44, N-((4,6-dimethyl-2-oxo-1,2-dihydropyridin-3-yl)methyl)-5-(ethyl (tetrahydro-2H-pyran-4-yl)amino)-4-methyl-4′-(morpholinomethyl)-[1,1′-biphenyl]-3-carboxamide]
mice without tumor on day 29 (Compound 44 250 mg/kg group): 1/16
mice without tumor on day 29 (Compound 44 500 mg/kg group): 2/15
tumor weight on day 28 compared to control mice (vehicle) (Compound 44 single agent at 125 mg/kg): significantly smaller
survival of mice (Kaplan-Meier) compared to control or COP only (Compound 44 single agent at 125 mg/kg, 250 mg/kg and 500 mg/kg): increased the survival
tumor size at day 28, tumor growth delay cohort (Compound 44 single agent, 250 mg/kg and 500 mg/kg): small tumors
tumor growth compared to vehicle treated mice (Compound 44 single agent, 250 mg/kg and 500 mg/kg BID, p<0.001): statistically significant tumor growth inhibition
mice euthanized due to poor body condition (mouse, in vivo, 500 mg/kg): One mouse
